{"source": "paper PMC7278359", "about": "“Small molecule AX-024 reduces T cell proliferation independently of CD3ϵ/Nck1 interaction, which is governed by a domain swap in the Nck1-SH3.1 domain” (The Journal of Biological Chemistry, 2020)", "key": {"monomeric Nck1-SH3.1": {"system": "monomeric Nck1-SH3.1", "test": "Ligand-observed NMR with monomeric Nck1-SH3.1", "type": "binding, human", "settings": "50 μM ligand, 10 μM monomeric Nck1-SH3.1 (residues 1–61), pH 6.5, 150 mM NaCl, 27 °C", "protocol": "(§1) NMR spectra were recorded on a Bruker 600-MHz Avance NEO spectrometer equipped with a cryogenic QCI probe head at 27 °C in 25 mM […], 150 mM NaCl. The Topspin 4.0 software (Bruker, Fällanden) was used for spectrometer operation and data processing. For ^1H ligand-observed measurements, a relaxation filtered pulse sequence utilizing a spinlock of 50 ms was applied. 1D spectra were acquired with 128 scans, a sweep width of 26 ppm, and an acquisition time of 2 s. 2D ^1H-^15N HSQC spectra with natural ^15N isotope abundance were recorded over 72 h with a spectral width of 16 ppm and 35 ppm in the proton and nitrogen dimensions, respectively, with 256 increments (complex) and 1000 scans per increment. A relaxation delay of 1 s was used between scans. For the DOSY measurements (reviewed in Ref. [51]), the Bruker pulse sequence ledbpgp2s with a diffusion delay of 50 ms and a gradient length of 600 μs was used. The gradient strength was varied from 5 to 95% to record 16 increments of 512 scans with a sweep width of 18 ppm and a relaxation delay of 1 s.\n(§2) Samples for ligand-observed measurements were prepared in 25 mM sodium phosphate buffer, pH 6.5, 150 mM NaCl. One sample contained 50 μM AX-024, and the other contained 50 μM CD3ϵ peptide."}, "dimeric Nck1-SH3.1": {"system": "dimeric Nck1-SH3.1", "test": "Ligand-observed NMR with dimeric Nck1-SH3.1", "type": "binding, human", "settings": "50 μM ligand, 10 μM dimeric Nck1-SH3.1 (residues 1–61), pH 6.5, 150 mM NaCl, 27 °C", "protocol": "as §1, §2"}}, "data": [{"compound": "CC(C)[C@H](NC(=O)[C@@H]1CCCN1C(=O)[C@@H]1CCCN1C(=O)[C@@H]1CCCN1C(=O)[C@H](CCCNC(=N)N)NC(=O)[C@H](CCC(=O)O)NC(=O)[C@H](CCCCN)NC(=O)[C@H](CC(N)=O)NC(=O)[C@H](CCC(N)=O)NC(=O)CNC(=O)[C@@H](N)CCCNC(=N)N)C(=O)N1CCC[C@H]1C(=O)N[C@@H](CC(N)=O)C(=O)N1CCC[C@H]1C(=O)N[C@@H](CC(=O)O)C(=O)N[C@@H](Cc1ccc(O)cc1)C(N)=O", "values": [{"measurement": "ligand-observed NMR, spectral change / line broadening", "setting": "monomeric Nck1-SH3.1", "value": "strong line broadening"}, {"measurement": "ligand-observed NMR, spectral change / line broadening", "setting": "monomeric Nck1-SH3.1; listed as CD3ϵ peptide", "value": "significant line broadening"}, {"measurement": "ligand-observed NMR, spectral change / line broadening", "setting": "dimeric Nck1-SH3.1", "value": "much less line broadening"}, {"measurement": "ligand-observed NMR, spectral change / line broadening", "setting": "dimeric Nck1-SH3.1; listed as CD3ϵ peptide", "value": "much smaller line broadening"}]}]}
